Reference: PMC8286831, “Identifying SARS-CoV-2 antiviral compounds by screening for small molecule inhibitors of nsp13 helicase” (Biochemical Journal, 2021)

Biological target: SARS-CoV-2 nsp13 helicase (Severe acute respiratory syndrome coronavirus 2, UniProt P0DTD1)
Assay: biochemical
Details: IC50 + 0.02% Tween-20

Question: How did the IC50 turn out when `Cc1ccc(C(=O)Nc2ccc(S(=O)(=O)O)c3cc(S(=O)(=O)O)cc(S(=O)(=O)O)c23)cc1NC(=O)c1cccc(NC(=O)Nc2cccc(C(=O)Nc3cc(C(=O)Nc4ccc(S(=O)(=O)O)c5cc(S(=O)(=O)O)cc(S(=O)(=O)O)c45)ccc3C)c2)c1` [Suramin] was run?
Answer: Its IC50 is 1.1 µM.
